Test results from ChEMBL document CHEMBL1932996, “Structure-guided design of a methyl donor cofactor that controls a viral histone H3 lysine 27 methyltransferase activity” (J Med Chem, 2011).

What was measured:
BL21-DE3 [1] = conditions: Paramecium bursaria Chlorella virus 1
BL21-DE3 [2] = conditions: Paramecium bursaria Chlorella virus 1; remark: listed apart in the source

| SMILES | Km (BL21-DE3 [1]) [µM] | kcat (BL21-DE3 [1]) [s⁻¹] | kcat/Km (BL21-DE3 [2]) [M⁻¹ s⁻¹] |
| --- | --- | --- | --- |
| C[S+](CC[C@H](N)C(=O)O)C[C@H]1O[C@@H](n2cnc3c(N)ncnc32)[C@H](OCc2ccccc2)[C@@H]1O (mixture of isomers) | 86 | 0.00217 | 25.2 |
| C[S+](CC[C@H](N)C(=O)O)C[C@H]1O[C@@H](n2cnc3c(N)ncnc32)[C@H](OCc2ccccc2)[C@@H]1OCc1ccccc1 (mixture of isomers) | 173 | 0.00617 | 35.6 |
| C[S+](CC[C@H](N)C(=O)[O-])C[C@H]1O[C@@H](n2cnc3c(N)ncnc32)[C@H](O)[C@@H]1O (some centres not stated) | 126 | 0.065 | 516 |
| C[S+](CC[C@H](N)C(=O)O)C[C@H]1O[C@@H](n2cnc3c(N)ncnc32)[C@H](O)[C@@H]1OCc1ccccc1 (mixture of isomers) | 86 | 0.00233 | 27.1 |
